Data on 3 compounds can be found in patent US20230365592A1 (Agios Pharmaceuticals, Inc., priority 2022, published 2023).

For this test, the target named is T1, human PAH with the R408W mutation (Homo sapiens, UniProt P00439, R408W).
T1 construct: expressed in transfected cells
T1 sequence (P00439 1-452 R408W): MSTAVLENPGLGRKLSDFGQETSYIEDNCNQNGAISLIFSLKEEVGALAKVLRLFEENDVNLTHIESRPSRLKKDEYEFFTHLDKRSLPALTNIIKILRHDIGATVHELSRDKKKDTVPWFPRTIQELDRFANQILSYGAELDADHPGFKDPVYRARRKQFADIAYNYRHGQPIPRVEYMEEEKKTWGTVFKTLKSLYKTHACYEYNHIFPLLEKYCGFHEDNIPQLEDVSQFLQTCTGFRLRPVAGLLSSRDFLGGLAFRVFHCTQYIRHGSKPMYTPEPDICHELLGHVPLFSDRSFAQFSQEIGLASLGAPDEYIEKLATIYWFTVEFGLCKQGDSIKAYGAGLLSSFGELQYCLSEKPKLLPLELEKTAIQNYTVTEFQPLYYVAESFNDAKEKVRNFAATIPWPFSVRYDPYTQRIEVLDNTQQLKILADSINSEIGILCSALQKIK
The test is described as follows: Cell Based Phenylalanine Flux Assay.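 Note: after compound treatment, cells received sepiapterin plus isotope-labelled Phenylalanine for 4 hours, then labelled Tyrosine in the medium was quantified, 10-point 2-fold dilution series run in duplicate.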 The following applies: 24 hrs compound incubation, 13C-Tyrosine by LC-MS, average where tested multiple times.

The mark [1] stands for this setting: A375 cells expressing human R408W PAH.

The term AC50 denotes the midpoint of the concentration-response curve, whichever way the signal moves. A lower AC50 goes with activity at low concentration. Consider `Cc1cccn2nc([C@@H]3c4nc[nH]c4CCN3C(=O)c3cnn4cc(C5CC5)ccc34)cc12` [Example 1694, (S)-(6-cyclopropylpyrazolo[1,5-a]pyridin-3-yl)(4-(4-methylpyrazolo[1,5-a]pyridin-2-yl)-6,7-dihydro-1H-imidazo[4,5-c]pyridin-5(4H)-yl)methanone], for which, under setting [1], the AC50 is below 500 nM.

`Cc1cccn2nc([C@H]3c4nc[nH]c4CCN3C(=O)c3cnn4cc(C5CC5)ccc34)cc12` [Example 1695, (R)-(6-cyclopropylpyrazolo[1,5-a]pyridin-3-yl)(4-(4-methylpyrazolo[1,5-a]pyridin-2-yl)-6,7-dihydro-1H-imidazo[4,5-c]pyridin-5(4H)-yl)methanone] returned an AC50 under setting [1] above 5000 nM.

Regarding `CC1(c2nnc(N3CCc4[nH]cnc4[C@H]3c3cc4c(F)cccn4n3)o2)CC1` [Example 2515, (S)-2-(4-(4-fluoropyrazolo[1,5-a]pyridin-2-yl)-1,4,6,7-tetrahydro-5H-imidazo[4,5-c]pyridin-5-yl)-5-(1-methylcyclopropyl)-1,3,4-oxadiazole], the AC50 (A375 cells expressing human PAH R408W) is 1000 to 5000 nM.
